The assay deals with IL-1β. The experiment in a line: cell-based or functional assay.

B1: PSI0541, IL1RA-G4SG4SG4S-[half-life extending polypeptide moiety]-GS-IL1RA (ligand)
chain: RPSGRKSSKMQAFRIWDVNQKTFYLRNNQLVAGYLQGPNVNLEEKIDVVPIEPHALFLGIHGGKMCLSCVKSGDETRLQLEAVNITDLSENRKQDKRFAFIRSDSGPTTSFESAACPGWFLCTAMEADQPVSLTNMPDEGVMVTKFYFQEDEGGGGSGGGGSGGGGSPVPPTGDSEATPVPPTGDSETAPVPPTGDSGAPPVPPTGDSGAPPVPPTGDSGAPPVPPTGDSGAPPVPPTGDSGAPPVPPTGDSGAPPVPPTGDSGAPPVPPTGDSGAPPVPPTGDAGPPPVPPTGDSGAPPVPPTGDSGAPPVTPTGDSETAPVPPTGDSGAPPVPPTGDSEAAPVPPTDDSKEAGSRPSGRKSSKMQAFRIWDVNQKTFYLRNNQLVAGYLQGPNVNLEEKIDVVPIEPHALFLGIHGGKMCLSCVKSGDETRLQLEAVNITDLSENRKQDKRFAFIRSDSGPTTSFESAACPGWFLCTAMEADQPVSLTNMPDEGVMVTKFYFQEDE
In the case of B1, the “NHDF IC50 (pM); inhibition of IL-1β induced IL-6 release from NHDF cells” value was 400 pM.

For the origin of these results see US20210284690A1 (SWEDISH ORPHAN BIOVITRUM AB PUBL, published 2021).
